Values of other authors, collected in patent publication US7354941B2, “Nicotinamide benzofused-heterocyclyl derivatives useful as selective inhibitors of PDE4 isozymes” (Pfizer Products Inc., priority 2000, dated 2008).

How the values were obtained:
PDE4 = conditions: cited from earlier work
[1] = test system: antigen-induced bronchoconstriction; conditions: guinea pig, in vivo; cited from earlier work

## COc1ccc(C(=O)Nc2c(Cl)cncc2Cl)c2cccnc12 [Example D4418]
PDE4
  IC50: 200 nM
[1]
  inhibition of antigen-induced early and late phase bronchoconstriction and BAL eosinophilia: active
